According to patent US20240376517A1 (THE UNIVERSITY COURT OF THE UNIVERSITY OF EDINBURCH, priority 2021, published 2024):

Tested on: CD8+ T cells
Test: Reinvigoration of CD8+ T cells (GzmB expression)
Type: cell-based, mouse
Settings: after IL-2 treatment
Protocol: Live-cell fluorescence confocal microscopy. E0771 (1.5×10^3 cells/well) were plated on Geltrex-coated 8-chamber glass slides with freshly isolated murine CD8+ T cells (1.2×10^4 cells/well) in enriched E-DMEM phenol red-free media with IL-2 (80 U mL^−1), anti-mouse CD3e (2 μg mL^−1) and anti-mouse CD28 (5 μL mL^−1). After 48 h, T cell reinvigoration was performed by addition of IL-2 (1,000 U mL^−1) and incubation for 3 h. Probe H5 was used at 25 μM and Ac-IEPD-CHO at 50 μM with 1 h preincubation. After 1 h treatment at 37° C. with H5, cells were washed with media and imaged under a Leica TCS SP8 fluorescent confocal microscope under a 40× oil objective. Excitation wavelengths: 488 nm (H5), 561 nm (mKate). Images were analyzed with ImageJ.

IL-2: interleukin used to reinvigorate CD8+ T cells
CD8+ T cells expressing inactive GzmB: over 80%
